Reference: patent US20260167742A1, “METHOD FOR TREATING GASTRIC CANCER BY COMBINING ANTI-HER2 ANTIBODY AND CHEMOTHERAPEUTIC AGENT, AND USE” (SHANGHAI HENLIUS BIOTECH, INC., priority 2023, published 2026)

Assays:
[1] = tested on: gastric cancer cells SNU216; experiment: HER2 internalization (endocytosis) assay, pHrodo Green staining, flow cytometry; format: cell-based, human; conditions: 10 μg/mL
Description: (§1) A HER2 internalization assay was performed using pHrodoiFL Green STP ester amine reactive dye (P35369, Invitrogen). […] After a short wash with a wash buffer to remove unbound antibodies, one group of cells was placed on ice for freezing to stop internalization, and the remaining cells were placed in a 37° C. incubator for further incubation. After the co-incubation with the antibody, the cells were fixed with a fixation buffer (420801, Biolegend) for 30 min. Finally, all stained cells were washed with a staining buffer and analyzed on the CytoFLEX LX flow cytometer (Beckman Coulter, USA).

[2] = tested on: gastric cancer cells NCI-N87; experiment: as above; format: cell-based, human; conditions: 10 μg/mL
Description: as §1

trastuzumab: anti-HER2 antibody, heavy chain SEQ ID NO: 11, light chain SEQ ID NO: 12; or biosimilar, trade name Hanquyou
HER2 internalization (endocytosis) [1]: weak endocytosis
HER2 internalization (endocytosis) [2]: weak endocytosis
